For 1 compound, pA2 and Ki results are on record in US7767666B2, “Butyl and butynyl benzyl amine compounds” (Janssen Pharmaceutica NV, priority 2006, dated 2010).

Chains of the proteins cited; added tags and fusions are not shown. Lines headed by an entry give the natural chain unless they say otherwise; changes in a name come on top.
UniProt Q9Y5N1: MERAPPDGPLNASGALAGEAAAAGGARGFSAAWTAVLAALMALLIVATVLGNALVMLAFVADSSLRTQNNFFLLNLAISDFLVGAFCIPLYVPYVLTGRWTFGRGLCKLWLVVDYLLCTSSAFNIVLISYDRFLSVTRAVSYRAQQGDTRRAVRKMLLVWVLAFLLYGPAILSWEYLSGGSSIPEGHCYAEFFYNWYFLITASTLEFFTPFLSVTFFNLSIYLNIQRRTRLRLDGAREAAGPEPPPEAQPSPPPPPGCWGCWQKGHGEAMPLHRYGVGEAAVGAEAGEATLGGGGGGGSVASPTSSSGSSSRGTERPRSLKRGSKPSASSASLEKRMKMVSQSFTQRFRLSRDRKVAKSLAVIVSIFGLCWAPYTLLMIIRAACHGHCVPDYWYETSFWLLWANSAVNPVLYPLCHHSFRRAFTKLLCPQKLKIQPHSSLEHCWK

Assay [1] deals with T1, human H3 receptor (Homo sapiens, UniProt Q9Y5N1).
T1 construct: expressed in transfected cells
The experiment in a line: Cyclic AMP accumulation (β-galactosidase reporter). Type of assay: cell-based. Conditions: SK-N-MC cells expressing human H3 receptor and reporter; histamine agonist, forskolin 5 μM; Schild regression of pEC50 values. How it is done: Sublines of SK—N-MC cells were created that expressed a reporter construct and the human H3 receptor. The reporter gene (β-galactosidase) is under the control of multiple cyclic AMP responsive elements. In 96-well plates, histamine was added directly to the cell media followed 5 min later by an addition of forskolin (5 μM final concentration). When appropriate, antagonists were added 10 min prior to agonist addition. After a 6-h incubation at 37° C., the media was aspirated and the cells washed with 200 μL of phosphate-buffered saline followed by a second aspiration. Cells were lysed with 25 μL 0.1× assay buffer (10 mM Na-phosphate, pH 8, 0.2 mM MgSO4, 0.01 mM MnCl2) and incubated at rt for 10 min. Cells were then incubated for 10 min with 100 μL of 1× assay buffer containing 0.5% Triton and 40 mM β-mercaptoethanol. Color was developed using 25 μL of 1 mg/mL substrate solution (chlorophenolred β-D galactopyranoside; Roche Molecular Biochemicals, Indianapolis, Ind.).

Assay [2] concerns the target T1, human H3 receptor. The experiment in a line: H3 receptor binding. Conditions: cloned human H3 receptor stably expressed in SK-N-MC cells.

Each structure is given as a SMILES string.

As usually defined, the pA2 is a measure of antagonist potency on a negative log scale. The low end stands for lower antagonist potency, the high end for higher antagonist potency. What is called Ki is the equilibrium dissociation constant of an inhibitor or competing ligand from its target. A low value points to tighter binding. In assay [1], `CNCc1cc(C#CCCN2CCOCC2)ccc1Oc1ccccc1` [Example 6, Methyl-[5-(4-morpholin-4-yl-but-1-ynyl)-2-phenoxy-benzyl]-amine] returned a pA2 of 8.14. This compound also yielded a Ki in assay [2] of 5.7 nM.
